Assay results from paper PMC3344910 (Bioorganic & medicinal chemistry, 2012).

Amino acid sequences for entries named in this document (tags omitted).
UniProt P41143, whole entry: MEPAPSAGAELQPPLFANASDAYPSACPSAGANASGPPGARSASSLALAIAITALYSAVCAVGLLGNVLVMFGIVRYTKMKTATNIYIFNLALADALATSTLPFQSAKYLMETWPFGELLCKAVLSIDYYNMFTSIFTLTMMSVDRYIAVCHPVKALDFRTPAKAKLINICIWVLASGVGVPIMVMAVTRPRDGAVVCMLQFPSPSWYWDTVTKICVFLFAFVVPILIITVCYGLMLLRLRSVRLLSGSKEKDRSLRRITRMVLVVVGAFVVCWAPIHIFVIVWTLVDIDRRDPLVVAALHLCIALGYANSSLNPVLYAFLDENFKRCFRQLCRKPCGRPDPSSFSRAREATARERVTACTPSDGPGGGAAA
UniProt P35372, whole entry: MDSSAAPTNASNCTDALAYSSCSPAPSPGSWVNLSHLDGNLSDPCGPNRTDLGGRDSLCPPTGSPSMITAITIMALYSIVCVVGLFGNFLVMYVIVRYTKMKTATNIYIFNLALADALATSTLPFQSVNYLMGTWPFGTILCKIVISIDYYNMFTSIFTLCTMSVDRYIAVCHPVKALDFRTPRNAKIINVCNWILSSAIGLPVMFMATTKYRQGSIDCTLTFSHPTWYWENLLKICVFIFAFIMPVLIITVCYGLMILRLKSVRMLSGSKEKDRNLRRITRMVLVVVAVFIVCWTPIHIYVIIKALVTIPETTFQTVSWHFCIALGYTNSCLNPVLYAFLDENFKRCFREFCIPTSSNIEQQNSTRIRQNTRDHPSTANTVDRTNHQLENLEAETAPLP

How the values were obtained:
human DOP receptor = human DOP receptor (Homo sapiens, UniProt P41143); assay type: binding; details: read-out: DOP Ki ± SD
human MOP receptor = human MOP receptor (Homo sapiens, UniProt P35372); assay type: binding; details: read-out: MOP Ki ± SD

SMILES	Ki (human DOP receptor)	Ki (human MOP receptor)
COC(=O)[C@@H]1C[C@H](OC(C)=O)C(=O)[C@H]2[C@@]1(C)CC[C@H]1C(=O)O[C@H](c3ccoc3)C[C@]21C [Compound 1, (2S,4aR,6aR,7R,9S,10aS,10bR)-methyl 9-acetoxy-2-(furan-3-yl)-6a,10b-dimethyl-4,10-dioxo-dodecahydro-1H-benzo[f]iso-chromene-7-carboxylate, reference compound]	> 10 µM	–
COC(=O)[C@@H]1C[C@H](OC(C)=O)C(=O)[C@H]2[C@@]1(C)CC[C@H]1C(=O)O[C@@H](c3ccoc3)C[C@]21C [Compound 3, (2R,4aR,6aR,7R,9S,10aS,10bR)-methyl 9-acetoxy-2-(furan-3-yl)-6a,10b-dimethyl-4,10-dioxododecahydro-1H-benzo[f]isochromene-7-carboxylate]	> 10 µM	> 10 µM
